Reference: ChEMBL document CHEMBL1128368, “Synthesis and serotonergic activity of N,N-dimethyl-2-[5-(1,2,4-triazol-1-ylmethyl)-1H-indol-3-yl]ethylamine and analogues: potent agonists for 5-HT1D receptors” (J Med Chem, 1995)

By UniProt entry, the sequences of proteins in these tests, tags left out.
UniProt P08908, whole entry: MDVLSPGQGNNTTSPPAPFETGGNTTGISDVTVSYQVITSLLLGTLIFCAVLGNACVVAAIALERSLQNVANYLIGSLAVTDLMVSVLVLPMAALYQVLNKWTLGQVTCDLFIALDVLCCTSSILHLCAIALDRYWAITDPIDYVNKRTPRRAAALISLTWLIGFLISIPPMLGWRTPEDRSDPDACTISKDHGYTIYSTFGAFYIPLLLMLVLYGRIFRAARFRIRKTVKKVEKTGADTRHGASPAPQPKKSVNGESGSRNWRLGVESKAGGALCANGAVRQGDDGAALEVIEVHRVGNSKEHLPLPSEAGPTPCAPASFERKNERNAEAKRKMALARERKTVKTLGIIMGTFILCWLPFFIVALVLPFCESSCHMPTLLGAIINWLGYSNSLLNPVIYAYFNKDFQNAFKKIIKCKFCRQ
UniProt P14842, whole entry: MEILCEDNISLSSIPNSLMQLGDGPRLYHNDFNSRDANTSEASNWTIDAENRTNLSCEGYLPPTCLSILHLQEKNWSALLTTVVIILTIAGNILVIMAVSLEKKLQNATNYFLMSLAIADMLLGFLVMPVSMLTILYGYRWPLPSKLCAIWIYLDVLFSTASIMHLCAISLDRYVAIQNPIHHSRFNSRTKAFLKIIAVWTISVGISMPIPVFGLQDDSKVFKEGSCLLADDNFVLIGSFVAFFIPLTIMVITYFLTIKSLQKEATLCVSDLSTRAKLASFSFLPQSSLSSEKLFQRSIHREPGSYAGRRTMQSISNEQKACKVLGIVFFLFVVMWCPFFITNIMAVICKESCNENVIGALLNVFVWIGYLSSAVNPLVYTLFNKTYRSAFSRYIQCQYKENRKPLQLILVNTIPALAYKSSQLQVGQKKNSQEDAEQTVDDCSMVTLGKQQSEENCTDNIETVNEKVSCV

Tests used:
[1] = molecular target: 5-hydroxytryptamine receptor 1A (Homo sapiens, UniProt P08908); experiment: (§1) Binding activity radioligand.
[2] = molecular target: 5-hydroxytryptamine receptor 2A (Rattus norvegicus, UniProt P14842); experiment: as §1

IC50 [1]: 398 nM
IC50 [2]: > 10000 nM
SMILES: CNS(=O)(=O)Cc1ccc2[nH]cc(CCN(C)C)c2c1
